Reference: patent US8173813B2, “Quinolone and tetrahydroquinolone and related compounds having NOS inhibitory activity” (NeurAxon, Inc., priority 2007, dated 2012)

What was measured:
[1] = molecular target: Nitric oxide synthase (neuronal, human recombinant) nNOS (Homo sapiens, UniProt P29475); test: Human nNOS enzyme assay ([3H]L-arginine to [3H]L-citrulline); type: biochemical; details: human enzymes; ratio of eNOS IC50 to nNOS IC50
nNOS (Rat) = nNOS (Rat) (Rattus norvegicus, UniProt P29476); test: nNOS (Rat) enzyme assay; type: biochemical; details: rodent enzymes; values in parentheses
Experimental: nNOS (Rat), eNOS (Rat) and iNOS (Mouse) Enzyme Assay Recombinant rat or mouse NO synthases (iNOS, eNOS, nNOS) were expressed in Sf9 cells (Sigma), 36 mg prot/ml (Bradford). […] Inhibition of NOS was determined by measuring the formation of L-[3H] citrulline from L-[3H] arginine. […] Stop buffer:100 mM Hepes, pH 5.5, 3 mM EDTA, 3 mM EGTA.

Compound	Selectivity eNOS/nNOS [1]	Selectivity eNOS/nNOS (rodent data in parentheses) (nNOS (Rat))
CN(C)CCN1CCCCc2cc(NC(=N)c3cccs3)ccc21.Cl.Cl [Example 28, N-(1-(2-(Dimethylamino)ethyl)-2,3,4,5-tetrahydro-1H-benzo[b]azepin-7-yl)thiophene-2-carboximidamide dihydrochloride]	225	(321)
CNCCN1CCCCc2cc(NC(=N)c3cccs3)ccc21 [Example 36, N-(1-(2-(Methylamino)ethyl)-2,3,4,5-tetrahydro-1H-benzo[b]azepin-7-yl)thiophene-2-carboximidamide]	123	–
N=C(Nc1ccc2c(c1)CCCCN2CCN1CCCCC1)c1cccs1 [Example 40, N-(1-(2-(Piperidin-1-yl)ethyl)-2,3,4,5-tetrahydro-1H-benzo[b]azepin-7-yl)thiophene-2-carboximidamide]	29.6	–
CN1CCCC1CCN1CCCCc2cc(NC(=N)c3cccs3)ccc21 (stereo not drawn) [Example 45, N-(1-(2-(1-Methylpyrrolidin-2-yl)ethyl)-2,3,4,5-tetrahydro-1H-benzo[b]azepin-7-yl)thiophene-2-carboximidamide]	17	–
CNCCCN1CCCc2cc(NC(=N)c3cccs3)ccc21 [Example 63, N-(1-(3-(methylamino)propyl)-2,3,4-tetrahydroquinolin-6-yl)thiophene-2-carboximidamide]	95.7	–
